Measurements: paper PMC2746412 (European journal of pharmacology, 2009)

Protein sequences, listed by entry. Tags and fused reporters are not part of them. Lines headed by an entry give the natural chain unless they say otherwise; changes in a name come on top.
UniProt Q3I1M7: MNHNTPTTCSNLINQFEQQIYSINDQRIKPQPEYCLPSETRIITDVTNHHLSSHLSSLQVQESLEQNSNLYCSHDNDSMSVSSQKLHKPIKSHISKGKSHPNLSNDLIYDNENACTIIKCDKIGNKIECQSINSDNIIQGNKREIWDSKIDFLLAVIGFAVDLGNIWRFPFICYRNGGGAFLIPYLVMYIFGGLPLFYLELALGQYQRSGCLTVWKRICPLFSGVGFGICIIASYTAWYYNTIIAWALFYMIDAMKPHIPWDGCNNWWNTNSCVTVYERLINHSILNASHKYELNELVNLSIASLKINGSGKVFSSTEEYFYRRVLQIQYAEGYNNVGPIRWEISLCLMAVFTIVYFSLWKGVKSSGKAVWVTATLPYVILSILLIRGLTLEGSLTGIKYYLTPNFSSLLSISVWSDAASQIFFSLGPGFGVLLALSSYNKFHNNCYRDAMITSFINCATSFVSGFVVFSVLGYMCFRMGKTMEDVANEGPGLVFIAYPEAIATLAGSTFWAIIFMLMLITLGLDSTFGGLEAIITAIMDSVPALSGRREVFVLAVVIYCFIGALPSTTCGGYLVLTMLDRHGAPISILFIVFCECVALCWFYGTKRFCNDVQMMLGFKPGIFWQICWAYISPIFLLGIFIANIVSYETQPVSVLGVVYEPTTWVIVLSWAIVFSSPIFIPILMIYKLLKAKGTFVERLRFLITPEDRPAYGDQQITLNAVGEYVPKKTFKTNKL
UniProt Q3HL76: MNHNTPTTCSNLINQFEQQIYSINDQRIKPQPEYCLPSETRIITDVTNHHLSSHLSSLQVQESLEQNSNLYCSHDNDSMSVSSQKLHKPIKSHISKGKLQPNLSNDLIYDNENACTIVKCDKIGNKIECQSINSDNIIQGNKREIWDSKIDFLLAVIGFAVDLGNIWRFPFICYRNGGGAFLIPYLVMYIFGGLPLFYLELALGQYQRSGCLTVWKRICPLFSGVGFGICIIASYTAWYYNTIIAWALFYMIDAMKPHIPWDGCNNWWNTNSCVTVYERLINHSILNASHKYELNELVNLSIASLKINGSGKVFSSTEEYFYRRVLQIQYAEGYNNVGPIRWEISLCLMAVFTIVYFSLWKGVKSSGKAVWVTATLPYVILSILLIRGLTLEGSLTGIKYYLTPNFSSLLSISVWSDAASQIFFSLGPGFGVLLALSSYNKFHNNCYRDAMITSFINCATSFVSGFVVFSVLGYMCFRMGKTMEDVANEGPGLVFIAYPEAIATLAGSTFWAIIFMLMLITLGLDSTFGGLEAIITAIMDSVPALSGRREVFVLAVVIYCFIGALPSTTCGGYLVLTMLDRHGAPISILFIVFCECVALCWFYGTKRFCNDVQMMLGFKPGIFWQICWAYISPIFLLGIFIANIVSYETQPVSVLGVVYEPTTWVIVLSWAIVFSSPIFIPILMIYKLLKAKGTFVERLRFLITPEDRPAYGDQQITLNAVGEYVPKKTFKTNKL

biological target: GFP-SmSERT-B (Schistosoma mansoni, UniProt Q3I1M7); test: cell-based

| Structure (SMILES) | IC50 [µM] |
| --- | --- |
| CN(C)CCCN1c2ccccc2Sc2ccc(Cl)cc21 [Chlorpromazine] | 0.3 ± 0.2 |
| CN(C)CCCC1(c2ccc(F)cc2)OCc2cc(C#N)ccc21 (stereo not shown) [Citalopram] | 0.19 ± 0.13 |
| CN(C)CCCN1c2ccccc2CCc2ccc(Cl)cc21 [Clomipramine] | 0.2 ± 0.1 |
| CNCCCN1c2ccccc2CCc2ccccc21 [Desipramine] | 1.5 ± 0.4 |
| CNCCC(Oc1ccc(C(F)(F)F)cc1)c1ccccc1 (stereo not shown) [Fluoxetine] | 0.2 ± 0.1 |
| Fc1ccc([C@@H]2CCNC[C@H]2COc2ccc3c(c2)OCO3)cc1 [Paroxetine] | 0.1 ± 0.1 |

biological target: GFP-SmSERT-A (Schistosoma mansoni, UniProt Q3HL76); test: cell-based

| Structure (SMILES) | IC50 [µM] |
| --- | --- |
| CN(C)CCCN1c2ccccc2Sc2ccc(Cl)cc21 [Chlorpromazine] | 0.2 ± 0.1 |
| CN(C)CCCC1(c2ccc(F)cc2)OCc2cc(C#N)ccc21 (stereo not shown) [Citalopram] | 0.25 ± 0.1 |
| CNCCC(Oc1ccc(C(F)(F)F)cc1)c1ccccc1 (stereo not shown) [Fluoxetine] | 0.2 ± 0.1 |
| Fc1ccc([C@@H]2CCNC[C@H]2COc2ccc3c(c2)OCO3)cc1 [Paroxetine] | 0.09 ± 0.07 |
